In patent publication US20220079950A1, “THERAPEUTIC COMBINATIONS AS ANTIDOTES FOR ORGANOPHOSPHATE EXPOSURE” (published 2022):

What was measured:
[1] = Screen of FDA approved drugs for change of RS194B levels (FIG. 13, 14); details: in vivo
[2] = Protective Indices upon intramuscular and oral administration (FIG. 1); details: i.m. versus p.o. administration
[3] = test system: P-glycoprotein; assay: RS194B tissue levels after administration of the P-glycoprotein inhibitor tariquidar (FIG. 11A-B); details: mice

CN(C)C(=N)N=C(N)N
change in RS 194B levels in tissues and urine with co-administered FDA approved drug [1]: little change

CCl.ON=Cc1ccccn1
oral bioavailability shown by Protective Indices [2]: lack thereof

C[C@H]1COc2c(N3CCN(C)CC3)c(F)cc3c(=O)c(C(=O)O)cn1c23
change in RS 194B levels in tissues and urine with co-administered FDA approved drug [1]: increases

O=C(O)c1cn(C2CC2)c2cc(N3CCNCC3)c(F)cc2c1=O
change in RS 194B levels in tissues and urine with co-administered FDA approved drug [1]: increases

COc1cc2c(cc1OC)CN(CCc1ccc(NC(=O)c3cc(OC)c(OC)cc3NC(=O)c3cnc4ccccc4c3)cc1)CC2
bile concentration of RS194B with tariquidar [3]: reductions
kidney concentration of RS194B with tariquidar [3]: enhanced
liver concentration of RS194B with tariquidar [3]: enhanced
urine concentration of RS194B with tariquidar [3]: reductions
plasma level of RS194B with tariquidar ([3]; tariquidar IP 10 min prior, collected 15 or 10 min after RS194B, n=3): enhancement
